Source: patent publication US6827926B2, “Metallotetrapyrrolic photosensitizing agents for use in photodynamic therapy” (Miravant Pharmaceuticals, Inc., priority 2001, dated 2004)

Tested on: normal skin of CD Hairless male rats
Format: in vivo, rat
Excerpt: We tested metallo- and metal-free tetrapyrroles systemically (see following section) for normal skin response in relation to the pharmacodynamic distribution of the photosensitizers in CD hairless rats. The skin of CD hairless rats are poorly developed, often referred to as hyperkeratotic, with various sized cystic hair follicles containing concentric lamellar accumulations of keratinaceous material, which are often associated with enlarged sebaceous glands. It quickly became apparent that gallium tetrapyrroles induced a marked clearing of the hyperkeratotic lesions in the treatment areas on the hairless rats. In fact, this clearing could be induced without necrosis of the skin. No other metallotetrapyrrole type produced such effects. This observation led us to assess the metallotetrapyrrolic compounds for skin restructuring effects both topically and systemically and for their ability to reduce hair growth in the following animal models.
Photosensitizer normal skin response as well as skin healing response, was evaluated using CD Hairless male rats. Photosensitizers were administered in an liposomal egg yolk phospholipid formulation at 1, 1.5 and 2 μmol/kg body weight formulation per dose group as a single bolus intravenous injection given through a marginal tail vein using a 27 gauge needle and a 1 cc tuberculin syringe. Normal skin responses were evaluated by irradiating several spots on the skin of the rat with a 532 nm laser (150 mW/cm^2, 150J, 1 cm diameter) at 1, 6, 24, 48, and 96 hrs post injection. Normal skin responses were evaluated and documented. The time at which the last spot is observed at the concentration injected is reported in the far right hand column in Tables 3, 4, 5 and 6. Skin samples were taken for histological evaluation at days 1, 10, 20 and 22 post light treatment. Rats were housed under normal lighting and all study procedures involving the test article were conducted under light filtered through blue and green Roscolox light filters to prevent photoactivation or degradation of the drug.

[1] = Table 3, time of last skin spot observed post injection, 532 nm laser

| Substance | Normal skin Response (1 μmol) [1] [h] | Normal skin Response (1 μmol) (Table 4, time of last skin spot observed post injection) [h] |
| --- | --- | --- |
| Aluminum Chloride 8,13-diethyl-3,7,12,17-tetramethylporphyrin-2,18-di(butanoic acid methyl ester) [Example 48] | 24 | – |
| Gallium Chloride 7,8,12,13-tetraethyl-12,17-dimethyl-10-azaporphyrin-2,18-di(3′-hydroxypropyl) [Example 23] | – | 96 |
| Gallium Chloride 8,13-diethyl-3,7,12,17-tetramethylporphyrin-2,18-di(butanoic acid methyl ester) [Example 26] | 24 | – |
| Zinc 8,13-diethyl-3,7,12,17-tetramethylporphyrin-2,18-di(butanoic acid methyl ester) [Example 49] | 24 | – |

Where two headings read alike, the source gives them in different places.
